{"sequences": {"note": "Protein sequences, listed by entry. Tags and fused reporters are not part of them.", "UniProt Q99705, whole entry E4Q/A5T": "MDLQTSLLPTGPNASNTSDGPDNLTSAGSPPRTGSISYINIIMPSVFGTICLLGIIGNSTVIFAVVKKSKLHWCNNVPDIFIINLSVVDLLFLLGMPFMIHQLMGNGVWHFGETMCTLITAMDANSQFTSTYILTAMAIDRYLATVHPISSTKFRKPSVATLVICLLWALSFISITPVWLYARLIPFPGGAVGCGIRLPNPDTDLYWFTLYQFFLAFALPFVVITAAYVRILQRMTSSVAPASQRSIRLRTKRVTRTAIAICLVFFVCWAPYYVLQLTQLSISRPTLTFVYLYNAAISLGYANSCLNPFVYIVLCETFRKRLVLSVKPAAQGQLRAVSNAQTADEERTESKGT"}, "source": "patent US9499482B2", "about": "“Pyrrolone or pyrrolidinone melanin concentrating hormone receptor-1 antagonists” (BRISTOL-MYERS SQUIBB COMPANY, priority 2012, dated 2016)", "data": [{"biological_target": "human melanin concentrating hormone receptor (MCHR1), mutated (E4Q, A5T) hMCHR1 (Homo sapiens (Human), UniProt Q99705, A5T/E4Q)", "assay": "Radioligand binding assay for assessment of MCHR1 activity ([125I]-MCH competition, HEK-293 membranes)", "settings": "membranes from HEK-293 cells expressing mutated (E4Q, A5T) hMCHR1; 0.06-0.1 nM [Phe13,[125I]Tyr19]-MCH", "description": "Radioligand Binding Assay for Assessment of MCHR1 Activity\nAn in vitro binding assay was used to determine the compound Ki value or ability to antagonize binding of a peptide agonist to the human melanin concentrating hormone receptor (MCHR1). Membranes from stably transfected HEK-293 cells expressing a mutated (E4Q, A5T) hMCHR1 receptor were prepared by dounce homogenization and differential centrifugation. […] Filters were dried, 0.05 mL MicroScint 20 was added to each well and radioactivity was subsequently quantified by scintillation counting on a TOPCOUNT® microplate scintillation counter (Packard). Inhibitory constants were determined by nonlinear least squares analysis using a four parameter logistic equation.", "units": {"Ki": "nM"}, "values": [{"smiles": "Cc1cc(N2CC[C@H](Oc3ccc(C4CC4)cc3)C2=O)ccc1OCCNCC(F)(F)F", "note": "[Example 88]", "Ki": 18}, {"smiles": "Cc1cc(N2CC[C@H](Oc3ccc(C4CC4)cc3)C2=O)ccc1OCCNCC1(C)COC1", "note": "[Example 89]", "Ki": 1}, {"smiles": "Cc1cc(N2CC[C@H](Oc3ccc(C4CC4)cc3)C2=O)ccc1OCCN1CCC2(CC1)COC2", "note": "[Example 90]", "Ki": 1}, {"smiles": "Cc1cc(N2CC[C@H](Oc3ccc(C4CC4)cc3)C2=O)ccc1OCCNCC1(CO)COC1", "note": "[Example 91]", "Ki": 1.8}, {"smiles": "O=C1[C@@H](Oc2ccc(C3CC3)cc2)CCN1c1ccc(OCCN2CC[C@H](O)C2)c(Cl)c1", "note": "[Example 94]", "Ki": 0.9}, {"smiles": "O=C1[C@@H](Oc2ccc(C3CC3)cc2)CCN1c1ccc(OCCN2CC[C@@H](O)C2)c(Cl)c1", "note": "[Example 95]", "Ki": 1.1}, {"smiles": "O=C1[C@@H](Oc2ccc(C3CC3)cc2)CCN1c1ccc(OCCN2CC[C@@H](F)C2)c(Cl)c1", "note": "[Example 96]", "Ki": 1.3}, {"smiles": "O=C1[C@@H](Oc2ccc(C3CC3)cc2)CCN1c1ccc(OCCN2CC[C@H](F)C2)c(Cl)c1", "note": "[Example 97]", "Ki": 3}, {"smiles": "O=C1[C@@H](Oc2ccc(C3CC3)cc2)CCN1c1ccc(OCCN2CCC[C@H]2CO)c(Cl)c1", "note": "[Example 98]", "Ki": 3}, {"smiles": "CN(CCO)CCOc1ccc(N2CC[C@H](Oc3ccc(C4CC4)cc3)C2=O)cc1Cl", "note": "[Example 99]", "Ki": 1.2}, {"smiles": "O=C1[C@@H](Oc2ccc(C3CC3)cc2)CCN1c1ccc(OCCN2CCC(F)(F)C2)c(Cl)c1", "note": "[Example 100]", "Ki": 30}, {"smiles": "O=C1[C@@H](Oc2ccc(C3CC3)cc2)CCN1c1ccc(OCCN2CCC[C@@H]2CO)c(Cl)c1", "note": "[Example 101]", "Ki": 1}, {"smiles": "O=C1[C@@H](Oc2ccc(C3CC3)cc2)CCN1c1ccc(OCCN2CCOCC2)c(Cl)c1", "note": "[Example 102]", "Ki": 2}, {"smiles": "O=C1CN(CCOc2ccc(N3CC[C@H](Oc4ccc(C5CC5)cc4)C3=O)cc2Cl)CCN1", "note": "[Example 103]", "Ki": 12}, {"smiles": "NC(=O)[C@@H]1CCCN1CCOc1ccc(N2CC[C@H](Oc3ccc(C4CC4)cc3)C2=O)cc1Cl", "note": "[Example 104]", "Ki": 8}, {"smiles": "O=C1[C@@H](Oc2ccc(C3CC3)cc2)CCN1c1ccc(OCCN2CC=CC2)c(Cl)c1", "note": "[Example 105]", "Ki": 1.5}, {"smiles": "O=C1[C@@H](Oc2ccc(C3CC3)cc2)CCN1c1ccc(OCCN2CC(O)C2)c(Cl)c1", "note": "[Example 106]", "Ki": 1.3}, {"smiles": "O=C1[C@@H](Oc2ccc(C3CC3)cc2)CCN1c1ccc(OCCN2C[C@@H](O)[C@@H](O)C2)c(Cl)c1", "note": "[Example 107]", "Ki": 1.4}, {"smiles": "COc1cc(N2CC[C@H](Oc3ccc(C4CC4)cc3)C2=O)ccc1OCCN(C)C(C)=O", "note": "[Example 116, (S)—N-(2-(4-(3-(4-Cyclopropylphenoxy)-2-oxopyrrolidin-1-yl)-2-methoxyphenoxy)ethyl)-N-methylacetamide]", "Ki": 6}, {"smiles": "COc1cc(N2CC[C@H](Oc3ccc(C4CC4)cc3)C2=O)ccc1OCCN(C)S(C)(=O)=O", "note": "[Example 117]", "Ki": 6}, {"smiles": "COc1cc(N2CC[C@H](Oc3ccc(C4CC4)cc3)C2=O)ccc1OCCN(C)S(=O)(=O)c1sc(NC(C)=O)nc1C", "note": "[Example 118]", "Ki": 85}, {"smiles": "COc1cc(N2CC[C@H](Oc3ccc(C4CC4)cc3)C2=O)ccc1OCCN(C)S(=O)(=O)c1ccccc1", "note": "[Example 119]", "Ki": 16}, {"smiles": "COc1cc(N2CC[C@H](Oc3ccc(C4CC4)cc3)C2=O)ccc1OCCN(C)S(=O)(=O)C(C)C", "note": "[Example 120]", "Ki": 8}, {"smiles": "COc1cc(N2CC[C@H](Oc3ccc(C4CC4)cc3)C2=O)ccc1OCCN(C)S(=O)(=O)CC(F)(F)F", "note": "[Example 121]", "Ki": 21}, {"smiles": "CCS(=O)(=O)N(C)CCOc1ccc(N2CC[C@H](Oc3ccc(C4CC4)cc3)C2=O)cc1OC", "note": "[Example 122]", "Ki": 6}, {"smiles": "CCCS(=O)(=O)N(C)CCOc1ccc(N2CC[C@H](Oc3ccc(C4CC4)cc3)C2=O)cc1OC", "note": "[Example 123]", "Ki": 8}, {"smiles": "COc1cc(N2CC[C@H](Oc3ccc(C4CC4)cc3)C2=O)ccc1OCCN(C)S(=O)(=O)c1c(C)noc1C", "note": "[Example 124]", "Ki": 19}, {"smiles": "COc1cc(N2CC[C@H](Oc3ccc(C4CC4)cc3)C2=O)ccc1OCCN(C)S(=O)(=O)C1CC1", "note": "[Example 125]", "Ki": 6}]}]}
